{"sequences": {"note": "The chains behind the UniProt entries cited, without tags or fusion partners. Residues count along the entry.", "UniProt P22310, 4-534 P24T": "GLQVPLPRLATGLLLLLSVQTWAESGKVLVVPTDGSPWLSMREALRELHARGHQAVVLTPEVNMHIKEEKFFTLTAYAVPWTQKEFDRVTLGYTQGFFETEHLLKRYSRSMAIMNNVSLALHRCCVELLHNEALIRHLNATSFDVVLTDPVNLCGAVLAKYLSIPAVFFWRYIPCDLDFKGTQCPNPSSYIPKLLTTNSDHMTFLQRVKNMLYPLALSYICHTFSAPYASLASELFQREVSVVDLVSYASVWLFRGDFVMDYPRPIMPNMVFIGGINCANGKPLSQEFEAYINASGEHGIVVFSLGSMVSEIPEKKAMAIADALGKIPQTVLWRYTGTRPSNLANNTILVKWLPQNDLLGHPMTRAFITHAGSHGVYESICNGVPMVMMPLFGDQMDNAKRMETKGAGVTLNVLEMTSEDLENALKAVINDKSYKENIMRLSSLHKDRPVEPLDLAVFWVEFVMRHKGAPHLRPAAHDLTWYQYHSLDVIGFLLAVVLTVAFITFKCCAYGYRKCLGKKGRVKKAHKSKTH", "UniProt P22310, 29-534 L48V": "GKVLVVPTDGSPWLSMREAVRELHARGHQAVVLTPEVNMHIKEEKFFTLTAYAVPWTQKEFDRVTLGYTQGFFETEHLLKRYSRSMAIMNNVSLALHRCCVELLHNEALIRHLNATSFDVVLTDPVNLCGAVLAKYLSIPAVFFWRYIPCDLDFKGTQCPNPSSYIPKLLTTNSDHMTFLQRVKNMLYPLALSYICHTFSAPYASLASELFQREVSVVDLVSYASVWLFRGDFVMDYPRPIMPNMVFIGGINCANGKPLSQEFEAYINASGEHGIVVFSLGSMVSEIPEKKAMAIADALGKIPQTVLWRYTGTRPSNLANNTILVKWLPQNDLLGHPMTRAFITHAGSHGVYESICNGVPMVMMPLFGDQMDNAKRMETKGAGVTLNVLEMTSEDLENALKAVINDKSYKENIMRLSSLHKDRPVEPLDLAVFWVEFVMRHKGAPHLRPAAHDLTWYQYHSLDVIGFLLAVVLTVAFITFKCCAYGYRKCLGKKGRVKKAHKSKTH", "UniProt P36537, 24-528 D67Y": "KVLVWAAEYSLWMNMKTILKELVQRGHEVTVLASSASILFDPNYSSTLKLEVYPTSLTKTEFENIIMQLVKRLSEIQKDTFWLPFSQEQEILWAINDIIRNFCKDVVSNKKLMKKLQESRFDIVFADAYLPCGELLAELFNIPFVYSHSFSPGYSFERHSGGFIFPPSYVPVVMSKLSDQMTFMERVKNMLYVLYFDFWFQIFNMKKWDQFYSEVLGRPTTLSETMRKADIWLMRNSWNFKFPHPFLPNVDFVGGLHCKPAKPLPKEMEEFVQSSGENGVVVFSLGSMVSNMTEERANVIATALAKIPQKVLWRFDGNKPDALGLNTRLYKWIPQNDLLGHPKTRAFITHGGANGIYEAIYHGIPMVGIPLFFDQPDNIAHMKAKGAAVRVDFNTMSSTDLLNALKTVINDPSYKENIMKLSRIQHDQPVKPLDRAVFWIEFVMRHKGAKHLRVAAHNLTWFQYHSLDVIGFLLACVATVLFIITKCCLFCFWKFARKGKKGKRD"}, "source": "patent US20110223597A1", "about": "(priority 2010, published 2011)", "key": {"[1]": {"biological_target": "UGT1A4 24Thr/48Leu (Homo sapiens, UniProt P22310, P24T)", "assay": "in vitro", "conditions": "human, pH 7.5, KM"}, "[2]": {"biological_target": "UGT1A4 24Pro/48Val (Homo sapiens, UniProt P22310, L48V)", "assay": "in vitro", "conditions": "human, pH 7.5, KM"}, "[3]": {"biological_target": "UGT2B10^67Tyr (Homo sapiens, UniProt P36537, D67Y)", "conditions": "OLZ-10-N-glucuronide isomer 1 formation; UGT2B10^67Tyr"}, "[4]": {"conditions": "OLZ-10-N-glucuronide isomer 1 formation"}, "[5]": {"conditions": "OLZ-10-N-glucuronide isomer 2 formation"}}}
{"smiles": "Cc1cc2c(s1)Nc1ccccc1N=C2N1CCN(C)CC1", "note": "[OLZ, Olanzapine]", "values": [{"measurement": "Km at 2 h", "setting": "[1]; [4]", "value": "584 ± 67", "unit": "µM"}, {"measurement": "Km at 2 h", "setting": "[1]; [5]", "value": "152 ± 23", "unit": "µM"}, {"measurement": "Km at 2 h", "setting": "[2]; [4]", "value": 69, "unit": "µM"}, {"measurement": "Km at 2 h", "setting": "[2]; [5]", "value": "110 ± 14", "unit": "µM"}, {"measurement": "glucuronidation activity", "setting": "[3]", "value": "no activity detected"}]}
